Measurements as given in publication PMC5326799, “Discovery of Compounds that Positively Modulate the High Affinity Choline Transporter” (Frontiers in Molecular Neuroscience, 2017).

Target: T1, CHT (Homo sapiens, UniProt Q9GZV3)
T1 sequence (Q9GZV3 1-580): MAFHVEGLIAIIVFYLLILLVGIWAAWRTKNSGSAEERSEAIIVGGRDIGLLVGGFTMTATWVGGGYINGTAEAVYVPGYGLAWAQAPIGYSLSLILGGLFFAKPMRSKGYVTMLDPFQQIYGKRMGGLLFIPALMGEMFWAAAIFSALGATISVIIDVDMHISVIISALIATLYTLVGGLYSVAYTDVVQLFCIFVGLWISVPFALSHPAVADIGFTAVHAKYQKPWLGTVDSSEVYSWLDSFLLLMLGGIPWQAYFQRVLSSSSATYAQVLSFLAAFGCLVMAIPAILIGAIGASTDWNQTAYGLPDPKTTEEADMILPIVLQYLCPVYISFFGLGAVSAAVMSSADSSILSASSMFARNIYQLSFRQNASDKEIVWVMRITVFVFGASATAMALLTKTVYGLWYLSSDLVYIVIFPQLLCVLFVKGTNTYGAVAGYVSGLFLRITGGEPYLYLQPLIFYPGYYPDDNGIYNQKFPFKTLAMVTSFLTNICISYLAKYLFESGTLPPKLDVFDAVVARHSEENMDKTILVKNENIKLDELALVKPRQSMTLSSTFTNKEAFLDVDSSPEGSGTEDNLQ
Settings: read-out: Km, saturation of D9-Choline uptake; HEK293 CHT-WT4

**Q.** For “deuterated choline chloride-(trimethyl-d9) [Compound D9-choline]”, which Km is on record?
**A.** Its Km is 7 µM.
